Test results taken from ChEMBL document CHEMBL3745640, “Challenges in the Discovery of Indoleamine 2,3-Dioxygenase 1 (IDO1) Inhibitors” (J Med Chem, 2015).

Chains of the proteins cited; added tags and fusions are not shown.
UniProt P14902, whole entry: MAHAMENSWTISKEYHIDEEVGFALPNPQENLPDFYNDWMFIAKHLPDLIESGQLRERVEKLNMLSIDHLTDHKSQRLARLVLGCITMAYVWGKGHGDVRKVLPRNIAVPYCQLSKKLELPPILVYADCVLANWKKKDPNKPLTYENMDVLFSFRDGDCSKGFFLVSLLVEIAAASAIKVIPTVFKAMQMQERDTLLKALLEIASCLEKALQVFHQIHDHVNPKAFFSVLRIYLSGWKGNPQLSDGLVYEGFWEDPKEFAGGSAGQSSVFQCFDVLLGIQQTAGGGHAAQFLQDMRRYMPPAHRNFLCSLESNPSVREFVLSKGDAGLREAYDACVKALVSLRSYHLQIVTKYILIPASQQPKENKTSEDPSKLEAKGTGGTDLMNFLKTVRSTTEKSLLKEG

Target: Indoleamine 2,3-dioxygenase 1 (Homo sapiens, UniProt P14902)
Test: Inhibition of C-terminal 6His-tagged human IDO using L-tryptophan as substrate preincubated for 5 mins followed by substrate addition measured after 15 mins by spectrophotometric analysis

IC50: < 1000 nM
SMILES: OC(CC1c2ccccc2-n2cncc21)C1CCCCC1 (stereo unspecified)
